Compounds with a hit are over-represented: about 16% of the library has one in this group of screens.
DT40 TDP1 no CPT – qHTS for Inhibitors of human tyrosyl-DNA phosphodiesterase 1 (TDP1): qHTS in cells in absence of CPT; DT40 Tdp1-/- hTDP1 cells, no CPT, ATP luminescence, 48 h; Potency, µM (doses to about 46.2 µM), hits mostly inhibitors; 420,000 compounds, 15% hits; AID 686978, 2013; note: nearly all actives have a fitted effect of over 55% in size
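Stably hTDP1-transfected Tdp1-null chicken DT40 cells were treated with library compounds minus camptothecin and grown for at least 48 hr at 37 °C, after which cellular ATP was quantified by luminescence.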
TDP1 inh – inhibitors of human tyrosyl-DNA phosphodiesterase TDP1 | Q9NUW8 | recombinant TDP1, AlphaScreen DNA substrate cleavage | Potency, µM (top dose mostly 130 µM), hits mostly inhibitors | 350,000 compounds, 0.28% hits | AID 485290; note: nearly all actives have a fitted effect of over 40% in size
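Compounds were preincubated with Tdp1 (1 nM final) for 15 min at room temperature before substrate (15 nM final) started a 5 min reaction; beads (10 ug/ml final) were then added for 10 min before AlphaScreen detection.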
DT40 TDP1 CPT – DT40-hTDP1 cell growth loss with CPT | chicken DT40 Tdp1-/-;hTDP1 cells + 20 nM CPT, ATP luminescence, 48 h | Potency, µM (highest dose often 46.2 µM), actives largely listed as inhibitors | 420,000 compounds, 12% hits | AID 686979; note: nearly all actives have a fitted effect of over 55% in size
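Cell growth measured by CellTiter-Glo luminescence after a minimum 48 h, 37 C compound exposure with 20 nM CPT in Tdp1-knockout DT40 cells stably expressing hTDP1, seeded 400/well; qHTS titration format.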
uPA generation – cell surface uPA generation inhibition. cell surface uPA generation assay, qHTS. Potency, µM (doses to about 38.3 µM), most hits filed as inhibitors. 330,000 compounds, 0.31% hits; active = well fitted inhibition curve with a large enough effect; inconclusive = small, poorly fitted or top-dose-only effect; inactive = no such curve, though single readings can be large or run the other way; tested in mouse RAW 264.7 cells; note: nearly all actives have a fitted effect of over 55% in size
miR-21 reporter – miR-21 reporter, rising signal. HeLa miR-21 FLuc reporter, luciferase, 48 h. Potency, µM (titrated, usually from 38.3 µM). 340,000 tested, under 10 active. AID 2288; active = well fitted rising curve with a large enough effect; inconclusive = small, poorly fitted or top-dose-only effect; inactive = no such curve, though single readings can be large or run the other way;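 also: miR-21 action dims this reporter so a rising signal means less miR-21 action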
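Luminescence from a firefly luciferase reporter carrying a miR-21 binding site downstream, stably expressed under a CMV promoter in HeLa cells that make miR-21 endogenously, reports miRNA modulation after 48 h compound exposure up to approximately 40uM final.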
Of the large screens only hits and unclear results are named; the others gave an inactive call; ! = not confirmed by another sample. Unless noted, calls come from the whole dose curve; as a rule, active = well fitted curve in the direction sought with a large enough effect; inconclusive = small, poorly fitted or top-dose-only effect, or another doubt; inactive = no such curve, though single readings can be large; an effect the other way counts as inactive or inconclusive.

CCOc1ccc(Oc2ccccc2NC(=O)CSCC(=O)Nc2cc(C)on2)cc1	DT40 TDP1 no CPT 13µM, DT40 TDP1 CPT 23µM (no result: miR-21 reporter)
COc1ccc(-c2csc(NC(=O)CSCC(=O)Nc3cc(C)on3)n2)cc1	DT40 TDP1 no CPT 23µM, DT40 TDP1 CPT inconclusive (no result: miR-21 reporter)
Cc1cc(NC(=O)C(C)SCC(=O)Nc2ccccc2C(C)(C)C)no1 (configuration not stated)	DT40 TDP1 no CPT 15µM, DT40 TDP1 CPT inconclusive (no result: TDP1 inh, miR-21 reporter)
Cc1cc(-c2nnc(SCC(=O)Nc3nc(-c4ccccc4)cs3)o2)no1	DT40 TDP1 no CPT inconclusive, DT40 TDP1 CPT 15µM (no result: TDP1 inh)
Cc1occc1-c1nnc(SCC(=O)Nc2nc(-c3ccccc3)cs2)o1	DT40 TDP1 no CPT inconclusive
Cc1cc(NC(=O)C(C)SCC(=O)Nc2ccccc2N2CCCC2)no1 (configuration not stated)	DT40 TDP1 no CPT inconclusive, DT40 TDP1 CPT inconclusive (no result: miR-21 reporter)
Cc1ccccc1NC(=O)c1ccccc1NC(=O)c1ccccc1F	DT40 TDP1 no CPT inconclusive, DT40 TDP1 CPT inconclusive
CCOC(=O)N1CCN(C(=O)CSc2nnc(-c3ccc(Cl)s3)o2)CC1	none (no result: DT40 TDP1 no CPT, DT40 TDP1 CPT, uPA generation)
COc1ccc(-c2csc(NC(=O)CSc3nc(SC)ns3)n2)cc1	DT40 TDP1 no CPT 23µM, DT40 TDP1 CPT inconclusive, uPA generation inconclusive
CCOC(=O)N1CCN(C(=O)CSCC(=O)Nc2nc(-c3ccc(OC)cc3)cs2)CC1	DT40 TDP1 no CPT 21µM, DT40 TDP1 CPT inconclusive (no result: uPA generation)
CCOC(=O)N1CCN(C(=O)CSCC(=O)Nc2nc(-c3ccc(Cl)s3)cs2)CC1	DT40 TDP1 no CPT 18µM, DT40 TDP1 CPT 15µM (no result: uPA generation)
CCOC(=O)N1CCN(C(=O)CSCC(=O)Nc2nc(-c3ccc(-c4ccccc4)cc3)cs2)CC1	DT40 TDP1 no CPT 3.3µM, DT40 TDP1 CPT 3.3µM, uPA generation inconclusive
COc1ccc(-c2csc(NC(=O)CSc3nc(C)cs3)n2)cc1	DT40 TDP1 no CPT inconclusive (no result: TDP1 inh, miR-21 reporter)
CCOc1ccccc1NS(=O)(=O)c1ccc2oc(=O)c3ncn(C)c3c2c1	none (no result: uPA generation)
CCOC(=O)c1ccc(-n2c(C)nc3c(cnn3-c3ccccc3Cl)c2=O)cc1	none
Cc1ccc(-n2c(C)nc3c(cnn3-c3ccccc3)c2=O)cc1	none (no result: DT40 TDP1 no CPT, DT40 TDP1 CPT, uPA generation)
CCOc1ccc(-n2c(-c3ccco3)nc3c(cnn3-c3ccc(C)cc3)c2=O)cc1	DT40 TDP1 no CPT inconclusive, DT40 TDP1 CPT inconclusive
CCOC(=O)c1ccc(-n2c(C)nc3c(cnn3-c3ccc(Cl)cc3)c2=O)cc1	DT40 TDP1 no CPT 5.8µM!, DT40 TDP1 CPT 8.2µM!
Cc1cccc(-n2c(C)nc3c(cnn3-c3ccc(F)cc3)c2=O)c1	DT40 TDP1 no CPT 9.2µM, DT40 TDP1 CPT 18µM
Cc1cccc(-n2c(-c3ccco3)nc3c(cnn3-c3ccc(F)cc3)c2=O)c1	DT40 TDP1 no CPT 16µM, DT40 TDP1 CPT 16µM, miR-21 reporter inconclusive (no result: uPA generation)
Cc1ccc(-n2c(-c3ccco3)nc3c(cnn3-c3ccc(C)cc3)c2=O)cc1	DT40 TDP1 no CPT 4.1µM, DT40 TDP1 CPT inconclusive
CN(Cc1cccc(F)c1)C(=O)c1cc(S(=O)(=O)N2CCOCC2)ccc1N1CCCC1	DT40 TDP1 no CPT inconclusive (no result: miR-21 reporter)
COC(=O)CC1Nc2ccccc2SC1=O (configuration not stated)	none
COC(=O)C1CC(=O)c2sccc2C1 (configuration not stated)	none
COc1cc(C2NC(=S)NC3=C2C(=O)CCC3)ccc1O (configuration not stated)	none
COc1ccc(-n2c(C)nc3c(cnn3-c3ccc(Cl)cc3)c2=O)cc1	DT40 TDP1 no CPT inconclusive, DT40 TDP1 CPT inconclusive
COc1ccc(-n2c(C)nc3c(cnn3-c3ccc(C)cc3)c2=O)cc1	DT40 TDP1 no CPT inconclusive, DT40 TDP1 CPT 15µM
CC(C)Nc1nc(NCCO)nc2ccccc12	DT40 TDP1 no CPT inconclusive (no result: TDP1 inh, uPA generation, miR-21 reporter)
CN(C)c1ccc(C=C2SC(=S)NC2=O)cc1	DT40 TDP1 no CPT inconclusive (no result: TDP1 inh, miR-21 reporter)
CCOc1ccc(N(C)c2ccc(/C=C3/SC(=S)NC3=O)cc2)cc1	DT40 TDP1 no CPT 16µM, DT40 TDP1 CPT inconclusive
CC1CCN(C(=O)c2ccc(S(=O)(=O)Cc3cccc(F)c3)c([N+](=O)[O-])c2)CC1	DT40 TDP1 no CPT inconclusive, DT40 TDP1 CPT inconclusive
O=C(c1ccc(S(=O)(=O)Cc2cc(F)ccc2F)c([N+](=O)[O-])c1)N1CCCCC1	DT40 TDP1 no CPT 23µM, DT40 TDP1 CPT inconclusive

Screens (PubChem)
